Chains of the proteins cited; added tags and fusions are not shown. Lines headed by an entry give the natural chain unless they say otherwise; changes in a name come on top.
UniProt Q9Y5N1: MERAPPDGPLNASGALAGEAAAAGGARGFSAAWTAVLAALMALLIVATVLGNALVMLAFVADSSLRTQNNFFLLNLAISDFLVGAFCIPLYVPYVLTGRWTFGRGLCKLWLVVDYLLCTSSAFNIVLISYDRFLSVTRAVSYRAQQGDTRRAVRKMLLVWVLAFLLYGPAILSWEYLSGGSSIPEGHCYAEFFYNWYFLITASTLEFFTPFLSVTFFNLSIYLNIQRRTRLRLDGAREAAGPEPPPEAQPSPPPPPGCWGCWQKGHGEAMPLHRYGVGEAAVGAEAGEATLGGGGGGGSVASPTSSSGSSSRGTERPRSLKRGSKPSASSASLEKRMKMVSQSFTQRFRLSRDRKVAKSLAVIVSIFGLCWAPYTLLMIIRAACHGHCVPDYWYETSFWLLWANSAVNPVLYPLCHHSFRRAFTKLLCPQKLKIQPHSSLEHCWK

In article PMC7717691, “Design, synthesis, and anticonvulsant effects evaluation of nonimidazole histamine H3 receptor antagonists/inverse agonists containing triazole moiety” (Journal of Enzyme Inhibition and Medicinal Chemistry, 2020):

Target: T1, H3R (Homo sapiens, UniProt Q9Y5N1)
T1 construct: expressed in transfected cells
Assay: CRE-driven luciferase reporter gene assay, H3R antagonistic activity
Assay type: cell-based
Details: HEK-293 cells, Table 1
Method: cAMP-response element (CRE) reporter gene assay has been extensively used to evaluate the efficacy of GPCR antagonists or agonists. […] Initially, compounds and positive controls were tested at two concentrations (100 nM and 1 µM) to obtain the preliminary investigation of their H3R antagonistic activities. In the assays, the antagonistic activities was positively correlated with the rise of the fluorescence value and indicated by the % antagonism. For the prominent compounds IC50 values were determined at additional assays.
Human thalamus poly-A RNA (Clontech, Palo Alto, CA, USA) was used to clone the hH3R gene by RT-PCR. DNA PCR primers were designed in the light of the reported human histamine receptor gene sequences (GenBank accession no.AF140538). HEK-293 cells were cultured and transfected for the luciferase assay. The detailed procedures were described in the previous publication.
Stable HEK-293 cells, which had been co-transfected with H3R and pCRE-Luc, were seeded in a 96-well plate overnight, and were grown to 90–95% confluence[43]^,[44]. Then the cells were treated with various concentrations of tested compounds in serum-free DMEM and incubated for 20 min. Cells were then stimulated with 100 nM Histamine in serum-free DMEM containing 2 µM Forskolin and incubated for 4 h at 37 °C. […]

O=C(c1ccc(OCCCc2cnc[nH]2)cc1)C1CC1 [CPX, ciproxifan, reference compound]
IC50: 82 nM
